This note sets out measurements from BindingDB's records for doi:10.1021/jm0500875 (Pfizer, 2005).

Where a name gives a salt, the structure may show the parent alone.

The target of the test is T1, Interstitial collagenase (Homo sapiens, UniProt P03956).
T1 sequence (P03956 whole entry): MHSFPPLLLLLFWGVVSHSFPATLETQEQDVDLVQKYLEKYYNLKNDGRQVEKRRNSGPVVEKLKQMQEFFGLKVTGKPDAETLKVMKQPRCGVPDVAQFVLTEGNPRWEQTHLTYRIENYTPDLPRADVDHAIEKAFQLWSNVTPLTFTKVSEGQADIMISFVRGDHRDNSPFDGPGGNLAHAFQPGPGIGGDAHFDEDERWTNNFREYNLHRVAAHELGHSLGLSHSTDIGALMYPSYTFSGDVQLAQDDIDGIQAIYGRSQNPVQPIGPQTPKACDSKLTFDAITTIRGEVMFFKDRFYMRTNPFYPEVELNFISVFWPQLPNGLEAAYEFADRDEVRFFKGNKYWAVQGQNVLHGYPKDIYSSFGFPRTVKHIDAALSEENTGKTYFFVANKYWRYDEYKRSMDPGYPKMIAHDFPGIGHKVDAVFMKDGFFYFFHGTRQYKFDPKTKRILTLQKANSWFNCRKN
The test is described as follows: Enzyme Inhibition Assay. Conditions: pH 7.5; 25 °C.

The Ki is a dissociation constant, usually derived from enzyme kinetics or from competition with a known ligand. A higher Ki goes with a looser hold on the target. As to `C#CCN1CCC(CS(=O)(=O)c2ccc(Oc3ccc(C)c(C)c3)cc2)(C(=O)NO)CC1` [4-({[4-(3,4-Dimethylphenoxy)phenyl]sulfonyl}methyl)-N-hydroxy-1-prop-2-ynylpiperidine-4-carboxamide Hydrochloride], the inhibitory constant (Ki) turned out to be 7.7 µM.
